# AlphaSeq binding of Ab-14 heavy chain variants to a spike HR2 peptide

Source: Engelhart et al. 2022 (doi:10.1038/s41597-022-01779-4), MIT Lincoln Laboratory and A-Alpha Bio; data file from the FLAb repository.

Target peptide (SARS-CoV-2 spike, HR2 region): PDVDLGDISGINAS

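The parent was found by panning a naive human phage display library on the peptide. AAYL49 was designed without a model: most single CDR substitutions and a random sample of double and triple ones. In AlphaSeq, yeast of one mating type display the scFv and yeast of the other type display the target. Binding brings cells together so that they mate, and sequencing counts the barcode pairs among the diploids. A regression on co-assayed BCL2-family reference pairs converts the normalised counts of each replicate to an apparent Kd. Each pool was mated in three replicate cultures.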

Parent scFv Ab-14: VH joined to VL by the linker GGGGSGGGGSGGGGS. Changes lie in the heavy chain CDRs alone.
VH: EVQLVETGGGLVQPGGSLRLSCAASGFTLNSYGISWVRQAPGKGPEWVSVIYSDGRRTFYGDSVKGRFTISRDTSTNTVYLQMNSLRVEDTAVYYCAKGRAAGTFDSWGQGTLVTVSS
VL: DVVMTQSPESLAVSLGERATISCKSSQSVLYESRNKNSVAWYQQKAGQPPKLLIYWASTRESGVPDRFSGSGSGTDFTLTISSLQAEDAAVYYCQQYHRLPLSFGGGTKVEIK

Variants are written as CDR1, CDR2 and CDR3 of the heavy chain (limits as in the source). Parent: GFTLNSYGIS, VIYSDGRRTFYGDSVK, GRAAGTFDS. Affinities are written as log10 Kd with Kd in nM; a lower number is a better binder. Where no diploid with the target was found in that replicate, the entry reads "nd": below detection, most likely a poor binder, though not proof of it.

CDR-H1,CDR-H2,CDR-H3,"replicates, log10 nM",empty controls
GFTLMSYGIS,VIYSDGWRTFYGDSVK,GRCAGTFDS,2.86 / 3.34 / 2.48,4/9 (3.95)
GSTLNSYGIS,VIYSDGRRTFYGDSVK,GWYAGTFDS,1.20 / 1.25 / 1.44,2/9 (3.56)
GFTLNSYGGW,VIYSDGRRTFYGDSVK,GRAAGTFDI,nd / nd / nd,0/9
GFTLNSYGIS,VIYSDPRRTFYGDVVK,GAAAGTFDS,nd / nd / 4.17,2/9 (4.22)
GFTLNSYGIS,VIYSDGMRTQYGDSVK,GRAAGTFDS,1.26 / 1.58 / 1.64,1/9 (4.89)
GFTLNSYGIS,VIYSDGRRTFYGDSVK,GRAAGTTMG,1.31 / 1.38 / 1.54,1/9 (3.64)
GFTLNSYGIS,VIYSDGRRTFNGDSNK,GRAAGDFDS,nd / nd / nd,1/9 (3.36)
GTHLNSYGIS,VIPSDGRRTFYGDSVK,GRAAGTFDS,nd / nd / nd,1/9 (4.69)
GTTLNSYGIS,VIYSDGRRTFHGDSVK,GRAAGTTDS,nd / 2.82 / nd,1/9 (4.69)
GFTLNSYGIS,VIYSDNRRTFYKDSVK,GRAAGTYDS,nd / 4.59 / nd,4/9 (4.50)
GRTLNSYGIS,VDYSDGRRTFYGHSVK,GRAAGTFDS,nd / nd / nd,0/9
GFTLNSYGIS,VDYSDGRRTFYSDSVK,GRAAGTFDS,nd / 2.89 / nd,1/9 (3.12)
GFTLNSYGIR,MIYSDGRRTFYGDSVK,GRAAGSFDS,nd / nd / nd,0/9
GFTLNSYGIW,VIYSDGRRLFYGDSVK,GRAAGMFDS,nd / 2.59 / nd,1/9 (3.16)
GFTLNSYGIN,VIYSDGRRLLYGDSVK,GRAAGTFDS,nd / nd / nd,1/9 (5.53)
GFTLNSYGIS,VIYSDGRRTFYGFSVK,GWAAGTFDS,3.12 / 2.59 / 2.04,0/9
GFTLNSYGIS,VIYSDGRRTFYGDNVK,SRAAGTFDS,4.72 / nd / nd,2/9 (3.97)
GFTLNSYNIS,VIYSDGRRTFYGDSEA,GRAAGTFDS,nd / nd / nd,2/9 (3.77)
GFTLNSYGIS,VIYSDPRFTFYGDSVK,GRQAGTFDS,5.25 / nd / 3.70,4/9 (3.86)
GFTLNVYGIS,VIYSDGRRTFFGDSVK,GRAAGTFDS,4.72 / 3.36 / 3.75,1/9 (3.79)
GFTLNSYGIS,VIYHDGRRTHYGDSVK,QRAAGTFDS,nd / nd / nd,1/9 (3.22)
GFTLNSYGIS,VIYSDGRRTFEGLSWK,GRAAGTFDS,nd / 3.65 / nd,6/9 (4.50)
GFTLNSYGIS,FIYSDKRRTFYGDSVK,GKAAGTFDS,nd / nd / nd,3/9 (3.50)
GFTLNSYGIS,VIYMDGRRTFYGDAVK,GRAAGRFDS,nd / nd / nd,0/9
GFTLNSMGIS,VIYQDGRRTFYGDSVK,GRAAVTFDS,nd / 5.12 / nd,2/9 (4.47)
GFTLNSYGIS,VIYYRGRRTFYGDSVK,GRAAGTFDS,nd / nd / 3.86,0/9
GFTLKSYGIQ,VIYSDGRRTFYGDYVK,GRAAGTFDS,nd / nd / nd,0/9
GFNLQSYGIS,VIYDDGRRTFYGDSVK,GRAAGTFDS,4.53 / nd / 4.74,1/9 (4.34)
GFTLNSYGIS,VIYSDGRWTFYGDSVK,GNAAGTFDP,nd / nd / nd,1/9 (3.97)
GFTLNSYPIC,VIYSDGRRSFYGDSVK,GRAAGTFDS,nd / 3.46 / nd,3/9 (3.80)
GFTLNSYGIS,VIKSDGRRTFYGVSVK,GRAAGTCDS,nd / nd / nd,1/9 (2.52)
GDTLNSYGIS,VIYSDGRRTGYGDSVK,QRAAGTFDS,nd / nd / 5.27,2/9 (3.86)

The 3 strongest on average among those seen in every replicate, once more:

CDR-H1,CDR-H2,CDR-H3,"replicates, log10 nM",empty controls
GSTLNSYGIS,VIYSDGRRTFYGDSVK,GWYAGTFDS,1.20 / 1.25 / 1.44,2/9 (3.56)
GFTLNSYGIS,VIYSDGRRTFYGDSVK,GRAAGTTMG,1.31 / 1.38 / 1.54,1/9 (3.64)
GFTLNSYGIS,VIYSDGMRTQYGDSVK,GRAAGTFDS,1.26 / 1.58 / 1.64,1/9 (4.89)

Nonspecific signal, from three strains lacking the peptide, appeared in 15% of pairings of library AAYL49, centred on 4.06 (5% of these signals below 2.83); values are not corrected for it. Also given: how often the same scFv was detected with the empty control strains, with their mean in brackets.